Reference: patent publication US10189807B2, “Tetrahydrothiophene-based GABA aminotransferase inactivators” (Northwestern University, priority 2015, dated 2019)

Protein sequences, listed by entry. Tags and fused reporters are not part of them. Residues count along the entry.
UniProt P80147, 29-500 limits assumed: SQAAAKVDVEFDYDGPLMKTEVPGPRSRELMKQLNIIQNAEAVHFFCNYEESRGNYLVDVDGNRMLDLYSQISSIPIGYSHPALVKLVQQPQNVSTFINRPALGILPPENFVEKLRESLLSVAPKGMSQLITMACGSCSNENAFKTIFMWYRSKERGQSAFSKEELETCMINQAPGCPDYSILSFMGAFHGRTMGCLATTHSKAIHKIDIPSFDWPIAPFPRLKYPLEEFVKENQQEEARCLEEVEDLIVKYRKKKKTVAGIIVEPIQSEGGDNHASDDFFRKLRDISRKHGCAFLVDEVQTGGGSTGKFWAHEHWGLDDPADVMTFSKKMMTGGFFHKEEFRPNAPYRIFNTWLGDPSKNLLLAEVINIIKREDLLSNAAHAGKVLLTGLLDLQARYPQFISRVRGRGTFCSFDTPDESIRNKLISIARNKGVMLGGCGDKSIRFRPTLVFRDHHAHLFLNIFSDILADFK

Legend:
[1] = target: T1, GABA-AT (Sus scrofa (Pig), UniProt P80147); assay: Time-dependent inhibition (inactivation) of GABA-AT, Kitz and Wilson replot; type: biochemical; conditions: for Efficiency as inactivator of GABA-AT relative to vigabatrin (from kinact/KI) / KI (inactivation): pH 6.5, 25° C.; for KI (inactivation): Kitz and Wilson replot, read-out: Ki (inactivation constant KI)
Method: (§1) GABA-AT was isolated and purified from pig brain by a published procedure.
GABA-AT (17.5 μL) was incubated in the presence of varying concentrations of each compound (70 μL final volume) at 25° C. in 50 mM potassium pyrophosphate buffer solution, pH 6.5, containing 5 mM α-ketoglutarate and 1 mM β-mercaptoethanol. […] The relative enzyme activity was determined by normalizing the rate of increasing absorbance at 340 nm to a control. A Kitz and Wilson replot was used to determine the kinetic constants KI and kinact.

[2] = target: T1, GABA-AT; assay: Inhibition of GABA-AT, coupled assay with SSDH; type: biochemical; conditions: pH 8.5, 25° C., from IC50 by Cheng-Prusoff; read-out: Ki (reversible inhibition)
Method: as §1
Inhibition constants were determined by monitoring GABA-AT activity in the presence of 0-50 mM concentrations of synthesized analogues using a coupled assay with the enzyme succinic semialdehyde dehydrogenase (SSDH). The assay solution consisted of 10 mM GABA, 5 mM α ketoglutarate, 1 mM NADP^+, 5 mM β-mercaptoethanol, and excess SSDH in 50 mM potassium pyrophosphate buffer, pH 8.5. Enzyme activity was determined by observing the change in absorbance at 340 nm at 25° C. IC50 values were obtained using non-linear regression in GraphPad Prism5 software. Subsequent Ki values were determined using the Cheng-Prusoff relationship. (Yung-Chi, C.; Prusoff, W. H. Biochem. Pharmacol. 1973, 22, 3099-3108.)

Ki [2] [µM]	Compound	Inactivation rate constant relative to vigabatrin [1] [times]	Efficiency as inactivator of GABA-AT relative to vigabatrin (from kinact/KI) [1]	KI (inactivation) [1] [µM]
	Cl.N[C@@H]1CS[C@H](C(=O)O)C1 [Compound 17, (2S,4S)-4-Aminotetrahydrothiophene-2-carboxylic acid hydrochloride]	~20	eight	182
	Cl.N[C@@H]1CS[C@@H](C(=O)O)C1 [Compound 18, (2R,4S)-4-Aminotetrahydrothiophene-2-carboxylic acid hydrochloride]		half as efficient	2230
3400 ± 800	N[C@H]1CS[C@@H](C(=O)O)C1 [Compound 20]			
3300 ± 700	N[C@H]1CS[C@H](C(=O)O)C1 [Compound 21]			
